How the values were obtained:
VMAT2 [1] = molecular target: T1, VMAT2 (Mus musculus, UniProt Q8BRU6); experiment: FFN206 uptake upregulation assay (18-h treatment, washout) in HEK-VMAT2 cells; format: cell-based; set-up: The full-length mouse and human SLC18A2 cDNAs encoding VMAT2 were cloned into pcDNA3.1 vectors; expressed in transfected cells; conditions: for Emax concentration: 18 h treatment, concentration giving Emax
VMAT2 [2] = molecular target: T1, VMAT2; experiment: FFN206 uptake inhibition assay (30-min treatment) in HEK-VMAT2 cells

Structure (SMILES)	Emax, % vehicle (mean ± SEM) (VMAT2 [1]; 18 h treatment followed by washout, at Emax concentration)	Emax concentration (VMAT2 [1])	Hill slope (upregulation) (VMAT2 [1]; 18 h upregulation curve fit)	Effect on VMAT2 activity, acute (VMAT2 [2]; 10 μM, 30 min, vs vehicle)	Hill Slope (inhibition) (VMAT2 [2]; 30 min inhibition curve fit)	Imax, % vehicle (mean ± SEM) (VMAT2 [2]; VMAT2 activity at 100 μM compound, 30 min, normalized to vehicle (100%))
Clc1ccc2c(c1)C(N1CCNCC1)=Nc1ccccc1O2 [AMO, Amoxapine]	179.83 ± 18.89 % vehicle	31.62 µM	4.376	significantly inhibited VMAT2 activity	–1.002	7.73 ± 1.23 % vehicle
CN(C)CCCN1c2ccccc2CCc2ccccc21 [IMI, Imipramine]	–	100 µM	–	–	–	–
